We go through one compound from patent publication US12318449B2 (Rutgers, The State University of New Jersey, priority 2012, dated 2025).

Assay [1] has as its system hGRM1-negative UACC930 human melanoma cells. As to conditions: riluzole for 24 hours, escalating doses of IR; P=NS. As for the experimental part:
hGRM1-expressing C8161 [wild type (wt) for RAS and BRAF] and UACC903 (wt for RAS, mutated B-RAF, V600E) human melanoma cell line and hGRM1-negative melanoma cell line UACC930 (wt for RAS, mutated B-RAF, V600E), were obtained from Dr. Mary J. C. Hendrix (Children's Memorial Research Center, Chicago, IL) and Dr. Jeffrey M. Trent (Translational Genomics Research Center, Phoenix, AZ), respectively. Cells were cultured in monolayer at 37° C. in a 5% CO2 humidified incubator, in RPMI (InVitrogen) supplemented with 10% fetal bovine serum (Sigma).
Cells were trypsinized for retrieval and plated on 100-mm plates and allowed to attach overnight for 20 hours. […] Cells were irradiated by a Gamma Cell 40 Exactor (MDS Nordion) irradiator and then incubated overnight (20 hours). Drug was aspirated and culture media replaced at 20 hours. Plates were then monitored for 10 to 21 days and stained with crystal violet for visual counting. Colonies which contained more than 50 cells were scored as clonogenic survivors.
All clonogenic assays and cell cycle analyses experiments were repeated 3 times and the triplicate results are shown.

In assay [2] the test system is C8161 hGRM1-positive human melanoma cells. As to conditions: riluzole plus irradiation in comparison with irradiation alone; 0, 24, 48 and 72 hours after irradiation.
The test system of assay [3] is C8161 human melanoma cells. The experiment in a line: Cell cycle analysis (propidium iodide flow cytometry). It counts as cell-based. As to conditions: 8 Gy, 25 uM riluzole, average of 3 experiments. How it is done: Cell pellets were fixed by drop-wise addition of ice-cold 70% ethanol and incubated overnight at 4° C. Fixed cells were washed twice with ice-cold PBS and resuspended in […] PBS. […] The experiment was repeated 3 times.

A further assay has as its system C8161 xenografts. As to conditions: 19 and 25 days. As for the experimental part:
Immunodeficient nude mice were purchased from Taconic. C8161 cells were injected into flanks bilaterally at 10^6 cells per site.

Like-named read-outs stand apart in the source and are kept apart here.

Take `Nc1nc2ccc(OC(F)(F)F)cc2s1` [Riluzole, riluzole]: in assay [1], the “difference between treated and untreated control cells (survival fraction)” value is listed as “no difference”. In addition, in assay [2], the “cleaved caspase-3 / sensitization to ionizing radiation” value is recorded as “sensitized the cells to ionizing radiation”. The G1 worked out at 29.13 in assay [3] (Radiation followed by Riluzole) and 16.25 in assay [3] (Riluzole followed by Radiation). The compound also had a G2 in assay [3] (Riluzole followed by Radiation) of 61.64. For the same compound, the S in assay [3] (Riluzole followed by Radiation) is 18.45. The tumor volume result is reported as “significantly smaller tumors” with C8161 xenografts (riluzole (10 mg/kg daily) plus irradiation (3 weekly fractions of 4 Gy) versus untreated controls, riluzole alone or irradiation alone) and “significantly smaller tumors” with C8161 xenografts (riluzole alone (10 mg/kg daily oral gavage) versus untreated or vehicle controls).
